# According to US20260266848A1, “COMPOSITIONS AND METHODS FOR DIAGNOSING AND TREATING DYSTONIA” (Duke University, priority 2023, published 2026):
# Tested on: DYT1 patient plasma derived EVs
# Experiment: Plasma-derived EV proteomics (ExoQuick ULTRA, DIA LC/MS/MS), DYT1 vs Healthy Controls
# Parameters: species or system human
# Conditions: Hs. Plasma EVs (DYT1/WT); significance of genotype difference
# Description: Data was obtained for extracellular vesicles using previously acquired samples. The ExoQuick® ULTRA EV Isolation System was used to fractionate and enrich EVs from plasma. Isolated plasma EV samples were then submitted to proteomic analysis by the Duke Proteomics and Metabolomics Core Facility (DPMCF). At the DPMCF, quantitative (LC/MS/MS) was performed on 500 ng of each sample, using an EvoSep One UPLC system coupled to a Thermo Orbitrap Astral high-resolution accurate mass tandem mass spectrometer (Thermo). Briefly, the sample was eluted directly from an Evotip which was subjected to a low organic wash and then subjected to an analytical separation using a 1.7 μm EvoSep 150 um ID×15 cm endurance (EveoSep) column running an SPD30 gradient from approximately 5 to 30% acetonitrile with 0.1% formic acid with a column temperature of 50 C. Data collection on the Orbitrap Astral mass spectrometer was performed in a data-independent acquisition (DIA) mode of acquisition with a r=240,000 (@m/z 200) full MS scan from m/z 380-980 with a target AGC value of 4e5 ions. Fixed DIA, windows of 4 m/z from m/z 380 to 980 DIA MS/MS scans were acquired in the Astral with a target AGC value of 5e4 and a max fill time of 6 ms. HCD collision energy setting of 27% was used for all MS2 scans.
row,Substance,-LogP
1,USP7,1.411
2,ARL8B,1.86
